Measurements published in ChEMBL document CHEMBL1138243, “Design of mechanism-based inhibitors of transthyretin amyloidosis: studies with biphenyl ethers and new structural templates” (J Med Chem, 2007).

Target: Transthyretin (Homo sapiens, UniProt P02766)
Test: Inhibition of transthyretin fibril formation at pH 4.4 at 50 uM
Type: functional
Set-up: scale not given: the % may be the effect or the level left

## OCc1ccc(Oc2ccccc2)c(O)c1
  Activity: 70%
